Data taken from US20140363818A1, “EGFR and PAR2 Regulation of Intestinal Permeability” (UNIVERSITY OF MARYLAND, BALTIMORE, priority 2009, published 2014).

Target: T1, EGFR (Homo sapiens, UniProt P00533)
T1 construct: serum-starved, high EGFR-expressing Caco-2 cells; endogenous in cells; host or cells: Caco-2
Assay: EGFR phosphorylation in serum-starved Caco-2 cells (immunoprecipitation / Western blot)
Assay type: cell-based
Conditions: AG1478 5 μM, 2 h pre-incubation, Y1068, FIG. 5B
Procedure: PAR2 expression in Caco-2 cells was silenced using 2 different PAR2 siRNAs [HSS103471 and HSS103473 (50 nM each); Invitrogen].
The effect of zonulin on ex vivo and in vivo intestinal permeability was performed as described (8, 14) and reported above. To determine whether zonulin can activate EGFR, increasing concentrations of either zonulin or two-chain mature HP2 were added for increasing exposure times to serum-starved, high EGFR-expressing Caco-2 cells. The cells were lysed and processed for WB with anti-phospho EGFR (Y1068) Ab (Cell Signaling Technol. Inc.) as reported (40).
To determine whether zonulin can activate EGFR, increasing concentrations of baculovirus-derived, recombinant zonulin were added to Caco-2 intestinal epithelial cells. The cells were lysed, immunoprecipitated with anti-EGFR Ab, and processed for phosphotyrosine immunoblotting (PY-Plus).

COc1cc2ncnc(Nc3cccc(Cl)c3)c2cc1OC [AG1478, reference compound]
effect on zonulin-induced EGFR phosphorylation: prevented; also recorded: completely abolished

Entries after “also recorded” stand apart in the source; their conditions may differ.
